From ChEMBL document CHEMBL1143221, “Two-carbon-elongated HIV-1 protease inhibitors with a tertiary-alcohol-containing transition-state mimic” (J Med Chem, 2008)

Biological target: Protease (Human immunodeficiency virus 1, UniProt Q9YQ12)
Test: Inhibition of HIV1 protease expressed in Escherichia coli

- Ki: 0.52 nM
SMILES: CC(C)(C)NC(=O)[C@@H]1CN(Cc2cccnc2)CCN1C[C@@H](O)C[C@@H](Cc1ccccc1)C(=O)N[C@H]1c2ccccc2C[C@H]1O
